Reference: US9738720B2, “Monoclonal antibodies against HER2 epitope and methods of use thereof” (Mersana Therapeutics, Inc., priority 2014, dated 2017)

How the values were obtained:
MDA-MB-175VII cells = assay: Cytotoxicity assay (CellTiter-Glo), MDA-MB-175VII; assay type: cell-based, human; details: 72 hours or 6 days
Description: (§1) HER2-(EG2-MI-(10 kDa PHF-BA-(AF-HPA-Ala))) conjugates were evaluated for their antiproliferation properties in tumor cell lines in vitro using Cell Titer-Glo (Promega Corp). JIMT-1(HER2 medium expressing cells, DSMZ, Braunschweig, Germany, Cat.# ACC589), MDA-MB-361 (HER2 medium expressing human breast cancer cells, ATCC, Cat.# HTB-27), MDA-MB-453 cells (triple negative breast cancer cell line, ATCC, Cat.# HTB-131), were cultured in DMEM media (ATCC, Manassas, Va., Cat.#30-2002) with 10% FBS (Gibco®, Life Technologies, Grand Island, N.Y., Cat.#16140-071). NCI-H522 (non-small cell lung carcinoma cell line, not amplified, ATCC, Cat.# CRL-5810), and NCI-H2170 (non-small cell lung carcinoma cell line, ATCC, Cat.# CRL-5928) cells were cultured in RPMI-1640 medium (ATCC, Cat.#30-2001). NCI-H1581 (non-small cell lung carcinoma medium expressing cell line, not amplified, ATCC, Cat.# CRL-5878) cells were cultured in DMEM:F12 medium (ATCC, Cat.#30-2006). SNU5 (gastric carcinoma cell line, not amplified, ATCC, Cat.# CRL-5973) was cultured in Iscove's Modified Dulbecco's Medium (Invitrogen Life Technologies, Cat.#12440053) with 20% FBS. OVCAR3 (ovarian adenocarcinoma cell line, not amplified, ATCC, Cat.# HTB-161) was cultured in RPMI medium with 20% FBS. […] CAMA-1 (human breast cancer cell line, not amplified, ATCC, Cat.# HTB-21), was cultured in 90% ATCC-formulated Eagle's Minimum Essential Medium. ZR75-1 (human breast cancer cell line, not amplified, ATCC, Cat.# CRL-1500), was cultured in RPMI-1640 Medium. […]
(§2) For the cytotoxicity assay, cells were seeded at a density of 3000 cells per well in 96 well plates and allowed to attach during overnight incubation at 37° C. in the presence of 5% CO2. […] Cell survival was measured using CellTiter-Glo® Luminescent Cell Viability Assay (Promega, Madison, Wis.) as described in the kit instructions. Cell viability was normalized to untreated control and expressed as a percentage. The values were plotted and IC50 values calculated with Graphpad Prism software (San Diego, Calif.) using 4 parameter, variable slope, dose response curve fitting algorithm.

CAMA-1 cells = assay: Cytotoxicity assay (CellTiter-Glo), CAMA-1; assay type: cell-based, human; details: 72 hours or 6 days
Description: as §1, §2

NCI-H2122 cells = assay: Cytotoxicity assay (CellTiter-Glo), NCI-H2122; assay type: cell-based, human; details: 72 hours or 6 days
Description: (§3) HER2-(EG2-MI-(10 kDa PHF-BA-(AF-HPA-Ala))) conjugates were evaluated for their antiproliferation properties in tumor cell lines in vitro using Cell Titer-Glo (Promega Corp). JIMT-1(HER2 medium expressing cells, DSMZ, Braunschweig, Germany, Cat.# ACC589), MDA-MB-361 (HER2 medium expressing human breast cancer cells, ATCC, Cat.# HTB-27), MDA-MB-453 cells (triple negative breast cancer cell line, ATCC, Cat.# HTB-131), were cultured in DMEM media (ATCC, Manassas, Va., Cat.#30-2002) with 10% FBS (Gibco®, Life Technologies, Grand Island, N.Y., Cat.#16140-071). NCI-H522 (non-small cell lung carcinoma cell line, not amplified, ATCC, Cat.# CRL-5810), and NCI-H2170 (non-small cell lung carcinoma cell line, ATCC, Cat.# CRL-5928) cells were cultured in RPMI-1640 medium (ATCC, Cat.#30-2001). […]
as §2

HCC1187 cells = assay: Cytotoxicity assay (CellTiter-Glo), HCC1187; assay type: cell-based, human; details: 72 hours or 6 days
Description: as §1, §2

H522 cells = assay: H522 mouse tumor xenograft model; assay type: in vivo; details: FIG. 15; Example 16E 5 mg/kg; Example 17B 5 mg/kg; Kadcyla 10 mg/kg; IV single dose
[1] = tested on: low HER2-expressing breast and gastric cancer models; assay: Low HER2-expressing breast and gastric cancer models; assay type: in vivo; details: conjugate single doses of 1 mg/kg or […]; Kadcyla at doses of 10 mg/kg and above
NCI-H460 cells = assay: Cytotoxicity assay (CellTiter-Glo), NCI-H460; assay type: cell-based, human; details: 72 hours or 6 days
Description: as §3, §2

HCC70 cells = assay: Cytotoxicity assay (CellTiter-Glo), HCC70; assay type: cell-based, human; details: 72 hours or 6 days
Description: as §3, §2

MDA-MB-231 cells = assay: Cytotoxicity assay (CellTiter-Glo), MDA-MB-231; assay type: cell-based, human; details: 72 hours or 6 days
Description: as §3, §2

OVCAR3 cells = assay: Cytotoxicity assay (CellTiter-Glo), OVCAR3; assay type: cell-based; details: 72 hours or 6 days
Description: as §3, §2

TOV-21G cells = assay: TOV-21G mouse tumor xenograft model; assay type: in vivo; details: FIG. 14; Example 16E 5 mg/kg or 2 mg/kg; Kadcyla 10 mg/kg; IV single dose
Description: Tumor growth inhibition (% TGI) was defined as the percent difference in median tumor volumes (MTVs) between treated and control groups.
Treatment efficacy was determined from the incidence and magnitude of regression responses of the tumor size observed during the study. […] In a PR response, the tumor volume was 50% or less of its Day 1 volume for three consecutive measurements during the course of the study, and equal to or greater than 13.5 mm^3 for one or more of these three measurements. In a CR response, the tumor volume was less than 13.5 mm3 for three consecutive measurements during the course of the study. An animal with a CR response at the termination of a study was additionally classified as a tumor-free survivor (TFS). Animals were monitored for regression responses.
Female NCr nu/nu were inoculated subcutaneously with TOV-21G cells (n=10 for each group). Test compounds or vehicle were dosed IV as a single dose on day 1 or as indicated. Tumor size was measured at the times indicated in FIGS. 8 to 18 using digital calipers. Tumor volume was calculated and was used to determine the delay in tumor growth. Mice were sacrificed when tumors reached a size of 800 to 1500 mm^3. Tumor volumes are reported as the mean±SEM for each group.

MDA-MB-361 cells = assay: Cytotoxicity assay (CellTiter-Glo), MDA-MB-361; assay type: cell-based, human; details: 72 hours or 6 days
Description: as §3, §2

SKOV3 cells [2] = assay: Cytotoxicity assay (CellTiter-Glo), SKOV3; assay type: cell-based, human; details: 72 hours or 6 days
Description: as §3, §2

SKOV3 cells [3] = assay: SKOV3 mouse tumor xenograft model; assay type: in vivo; details: FIG. 16; Kadcyla 10 mg/kg; Example 17B 5 mg/kg; IV single dose
SKBR3 cells = assay: Internalization rate with anti-HER2 antibody combination; assay type: cell-based
Description: For the assay, 40,000 SKBR3 cells were plated in DMEM media containing 10% FBS, in each well of three 96 well plates (black colored plates with clear bottomed wells) and allowed to attach overnight at 37° in 5% CO2. The next day the cells were treated with antibodies as follows. […] The unbound antibody was removed by washing the cells two times with ice cold media. For detection, 5 μg/ml of an Alexa 647 labelled anti-human IgG Fab fragment was added to each well in ice cold media and incubated on ice for 1 hr. The unbound secondary antibody was removed by washing each well 2 times with ice cold media. […] Each treatment was carried out in triplicate. One set of wells were treated with the Alexa 647 labelled anti-human IgG monovalent Fab fragment alone, and the fluorescence measured in these wells was used to subtract background fluorescence.
One plate was left on ice to determine the time 0 values for each treatment, and the other plates were incubated at 37° C. After 1.5 hours, one plate from 37° C., and the time 0 plate, were washed 2 times with ice cold PBS and scanned using the 680 nm channel of a Licor Odyssey scanner. The fluorescence measured in each well is used as the total fluorescence for each treatment. The cells were then acid washed 2 times with 100 mM glycine, 50 mM KCl, and 20 mM […], pH2.2, then washed two times with ice cold PBS to remove the surface bound antibodies. The plates were scanned again to determine the amount of internalized fluorescence in each well. The 24 hour plates were analyzed the same way the next day.

Substance	IC50 (MDA-MB-175VII cells) [nM]	IC50 (CAMA-1 cells) [nM]	IC50 (NCI-H2122 cells) [nM]	IC50 (HCC1187 cells) [nM]	tumor response (H522 cells)	tumor response [1]	IC50 (NCI-H460 cells) [nM]	IC50 (HCC70 cells) [nM]	IC50 (MDA-MB-231 cells) [nM]	IC50 (OVCAR3 cells) [nM]	tumor response (TOV-21G cells)	IC50 (MDA-MB-361 cells)	IC50 (SKOV3 cells [2]) [nM]	tumor response (SKOV3 cells [3])	Percent internalized (SKBR3 cells; antibody alone) [%]	Percent internalized (SKBR3 cells; trastuzumab + pertuzumab)	Percent internalized (SKBR3 cells; trastuzumab + pertuzumab, listed as Trast.) [%]
Example 16B: Trastuzumab-(EG2-MI-(10 kDa PHF-BA-(AF-HPA-Ala))) conjugate, DAR about 16:1 to about 21:1	0.1	0.02	0.5	0.8													
Kadcyla: antibody-drug conjugate of trastuzumab linked to the cytotoxic agent mertansine (DM1) [reference compound]	1.2	7.8		30	did not attain the threshold for therapeutic activity	inactive	68	83.4	27	~85	did not attain the threshold for therapeutic activity	0.27 nM and 0.33 nM	5.6	did not attain the threshold for therapeutic activity			
Trastuzumab: recombinant, humanized monoclonal antibody directed against domain IV of the HER2 protein [reference compound]															13	about 30%	28

Several values for one entry are separate records, joined by “and”; a condition that tells them apart may be missing. Identical values can stand only once.
